Data taken from patent publication US7351732B2, “Cycloalkanedione derivatives, method for the production thereof and their pharmacological applications” (Schwarz Pharma S.L., priority 2002, dated 2008).

The chains behind the UniProt entries cited, without tags or fusion partners. Where a name states a change or a piece, a line headed by the entry shows the natural chain unless it says otherwise. Residues count along the entry.
UniProt P08908, whole entry: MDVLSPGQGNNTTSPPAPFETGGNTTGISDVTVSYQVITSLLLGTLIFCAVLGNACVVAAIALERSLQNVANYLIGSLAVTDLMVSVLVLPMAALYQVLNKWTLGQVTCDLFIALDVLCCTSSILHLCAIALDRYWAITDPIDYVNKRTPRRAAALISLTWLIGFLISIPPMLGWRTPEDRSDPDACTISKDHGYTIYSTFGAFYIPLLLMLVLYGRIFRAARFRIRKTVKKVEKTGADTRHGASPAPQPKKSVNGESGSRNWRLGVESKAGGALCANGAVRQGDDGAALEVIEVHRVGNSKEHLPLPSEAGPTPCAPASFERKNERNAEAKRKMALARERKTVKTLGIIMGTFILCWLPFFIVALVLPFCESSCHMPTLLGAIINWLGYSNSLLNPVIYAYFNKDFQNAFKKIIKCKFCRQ
UniProt P19327, whole entry: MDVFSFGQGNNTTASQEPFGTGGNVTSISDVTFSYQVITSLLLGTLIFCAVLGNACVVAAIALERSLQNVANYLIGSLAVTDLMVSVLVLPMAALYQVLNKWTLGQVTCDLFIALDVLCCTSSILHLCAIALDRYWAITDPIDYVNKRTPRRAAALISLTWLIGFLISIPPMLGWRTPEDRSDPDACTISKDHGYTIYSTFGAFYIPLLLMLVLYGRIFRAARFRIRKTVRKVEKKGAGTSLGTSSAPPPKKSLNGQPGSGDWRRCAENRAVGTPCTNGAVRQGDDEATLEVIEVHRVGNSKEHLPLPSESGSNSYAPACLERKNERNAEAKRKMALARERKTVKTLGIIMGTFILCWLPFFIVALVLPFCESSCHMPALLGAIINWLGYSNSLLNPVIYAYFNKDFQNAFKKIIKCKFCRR
UniProt P35563, 24-483: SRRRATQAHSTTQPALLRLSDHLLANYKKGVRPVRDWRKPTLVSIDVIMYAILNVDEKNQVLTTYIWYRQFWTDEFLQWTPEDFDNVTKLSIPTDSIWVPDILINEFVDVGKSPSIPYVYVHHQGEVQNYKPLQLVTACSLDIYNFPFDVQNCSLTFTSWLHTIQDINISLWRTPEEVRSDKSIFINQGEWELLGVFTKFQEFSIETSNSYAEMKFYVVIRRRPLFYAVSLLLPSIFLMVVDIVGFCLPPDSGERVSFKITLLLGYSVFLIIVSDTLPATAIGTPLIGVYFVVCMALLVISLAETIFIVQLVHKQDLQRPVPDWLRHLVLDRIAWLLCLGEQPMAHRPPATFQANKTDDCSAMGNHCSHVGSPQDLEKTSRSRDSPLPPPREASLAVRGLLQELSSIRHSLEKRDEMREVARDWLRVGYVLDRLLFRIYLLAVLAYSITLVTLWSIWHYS
UniProt Q62758: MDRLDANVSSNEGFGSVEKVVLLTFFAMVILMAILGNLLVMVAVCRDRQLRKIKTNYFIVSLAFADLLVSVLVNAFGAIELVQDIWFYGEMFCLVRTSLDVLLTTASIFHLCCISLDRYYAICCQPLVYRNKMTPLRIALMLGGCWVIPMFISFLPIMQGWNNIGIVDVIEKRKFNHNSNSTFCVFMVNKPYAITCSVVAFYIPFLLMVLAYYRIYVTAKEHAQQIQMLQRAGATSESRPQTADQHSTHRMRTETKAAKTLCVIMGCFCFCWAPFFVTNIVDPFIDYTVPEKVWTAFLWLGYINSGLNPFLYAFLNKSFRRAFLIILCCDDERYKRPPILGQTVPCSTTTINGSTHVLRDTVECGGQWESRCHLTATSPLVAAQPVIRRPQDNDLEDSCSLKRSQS

Key:
[1] = target: T1, 5-human HT1A receptor (Homo sapiens, UniProt P08908); assay: Test on adenylate cyclase in He-La cells (inhibition of forskolin stimulation); format: cell-based
T1 construct: expressed in transfected cells; host or cells: HeLa cells
From the text: The functional character of the new compounds was initially determined by studying their effect on adenylate cyclase in He—La cells transfected with the […], measuring their inhibiting effect on the stimulation of the enzyme induced by forskolin (Table 3 below).

[2] = target: 5-HT1A (Rattus norvegicus, UniProt P19327); assay: Radioligand displacement, 5-HT1A receptors, [3H]-8-OH-DPAT; format: binding; design: (a) 5-HT1A receptors, [^3H]-8-OH-DPAT, rat cerebral cortex; from tissue; host or cells: rat cerebral cortex
[3] = target: T2, 5-HT3 receptors (Rattus norvegicus, UniProt P35563); assay: Radioligand displacement, 5-HT3 receptors, [3H]LY 278584; format: binding
T2 construct: (c) 5-HT3 receptors, [^3H]LY 278584, rat cerebral cortex; from tissue; host or cells: rat cerebral cortex

[4] = target: T3, 5-HT4 receptors (Rattus norvegicus, UniProt Q62758); assay: Radioligand displacement, 5-HT4 receptors, [3H]GR 113808; format: binding; settings: [3H]GR 113808, rat striatum; read-out: Ki ± E.E. 5-HT4
T3 construct: (d) 5-HT4 receptors, [^3H]GR 113808, rat striatum; from tissue; host or cells: rat striatum

Compound: O=C1C2CCCN2C(=O)N1CCCCNCC1CCc2ccccc2O1 (racemic) [Compound 1, (±)-2-[4-[(Chroman-2-yl)methylamine]butyl]-1,3-dioxoperhydropyrrolo[1,2-c]imidazol]
- % Maximum inhibition [1]: 94.6%
- EC50 [1]: 16.3 nM

Compound: NCCc1c[nH]c2ccc(O)cc12 [Compound 5-HT, 5-hydroxytriptamine, reference compound]
- Ki [2]: 0.84 ± 0.27 nM
- Ki [3]: 13.8 ± 2.4 nM
- Ki [4]: 53.8 ± 3.3 nM
